Measured values published in patent publication US20240351988A1, “ARYL HYDROCARBON RECEPTOR MODULATORS AND THEIR USE IN THE TREATMENT OF DISEASES AND DISORDERS” (Allianthera (Suzhou) Biopharmaceutical Co., Ltd., priority 2021, published 2024).

Amino acid sequences for entries named in this document (tags omitted). Residues count along the entry.
UniProt P35869, 11-848 limits assumed: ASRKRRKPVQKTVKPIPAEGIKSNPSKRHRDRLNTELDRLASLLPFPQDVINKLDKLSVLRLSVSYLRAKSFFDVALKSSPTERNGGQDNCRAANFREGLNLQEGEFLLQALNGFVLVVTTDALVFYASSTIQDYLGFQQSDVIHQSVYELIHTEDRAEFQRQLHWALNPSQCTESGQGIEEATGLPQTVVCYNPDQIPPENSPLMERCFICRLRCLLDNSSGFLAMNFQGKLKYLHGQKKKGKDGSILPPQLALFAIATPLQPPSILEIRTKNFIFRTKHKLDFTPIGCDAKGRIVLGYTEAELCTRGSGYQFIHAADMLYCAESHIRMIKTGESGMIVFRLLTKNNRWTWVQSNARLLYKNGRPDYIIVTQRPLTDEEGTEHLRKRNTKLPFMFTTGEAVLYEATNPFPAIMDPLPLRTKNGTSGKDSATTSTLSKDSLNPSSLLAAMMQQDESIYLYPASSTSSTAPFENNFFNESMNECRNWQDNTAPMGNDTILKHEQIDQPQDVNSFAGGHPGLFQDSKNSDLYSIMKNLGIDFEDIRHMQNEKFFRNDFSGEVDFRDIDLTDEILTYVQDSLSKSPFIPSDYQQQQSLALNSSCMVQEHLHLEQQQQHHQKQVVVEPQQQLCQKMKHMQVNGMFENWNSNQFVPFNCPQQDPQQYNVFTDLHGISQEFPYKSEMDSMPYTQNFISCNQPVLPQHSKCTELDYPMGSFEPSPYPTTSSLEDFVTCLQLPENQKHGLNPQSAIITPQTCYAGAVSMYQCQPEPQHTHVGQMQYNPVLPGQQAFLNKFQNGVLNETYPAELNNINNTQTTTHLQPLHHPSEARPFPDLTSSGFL

Target: Human Aryl Hydrocarbon Receptor (AhR) (Homo sapiens, UniProt P35869)
Test: AHR antagonist reporter assay in human cell line (INDIGO AhR Reporter Assay System, kynurenic acid activated)
Description: The AhR reporter assay was performed following the protocol of the Human Aryl Hydrocarbon Receptor (AhR) Reporter Assay System (INDIGO Bioscience, #1B06001-32). AhR Reporter Cell was thawed and pre-incubated in Cell Recovery Medium (CRM) for 6 hours. The media was then removed and the cells were incubated with Compound Screening Medium (CSM) supplemented with 200 μM kynurenic acid for 24 hours in the absence (negative control) or presence of increasing concentrations of test compounds (typical dilution: […], 3.2 nM, 16 nM, 80 nM, 400 nM, 2 μM, 10 μM in duplicates). For positive inhibition control, cells activated with 200 μM kynurenic acid were incubated in the presence of literature AHR antagonists; alternatively un-activated cells were used as positive inhibition control. Following 24 hours incubation, the media was removed and Luciferase Detection Reagent (LDR) added. The firefly luciferase activity was quantified using a plate reader. Results were normalized by positive and negative controls.

Row | AhR Reporter Assay KA Antagonist Mode: IC50 (nM) (200 μM kynurenic acid, 24 hours, luciferase) | IC50 | Compound
1 | C (C <100 nM) | – | COC[C@H](C)NC(=O)c1cc(-c2ccc(Cl)cc2)nn(-c2cn[nH]c2)c1=O [Compound 62]
2 | – | < 100 nM | O=C(NC1CCNC1=O)c1cc(-c2ccc(Cl)cc2)nn(-c2cccc(F)c2)c1=O (centres unmarked)
